# Source: patent US8293901B2, “MAPK/ERK kinase inhibitors” (Takeda Pharmaceutical Company Limited, priority 2006, dated 2012)
# Amino acid sequences for entries named in this document (tags omitted). Chains listed by the source or under a name are the forms on record and can include a tag or linker.
# UniProt Q02750, with tags, fused parts or gaps DEL33-52/S218E/S222D: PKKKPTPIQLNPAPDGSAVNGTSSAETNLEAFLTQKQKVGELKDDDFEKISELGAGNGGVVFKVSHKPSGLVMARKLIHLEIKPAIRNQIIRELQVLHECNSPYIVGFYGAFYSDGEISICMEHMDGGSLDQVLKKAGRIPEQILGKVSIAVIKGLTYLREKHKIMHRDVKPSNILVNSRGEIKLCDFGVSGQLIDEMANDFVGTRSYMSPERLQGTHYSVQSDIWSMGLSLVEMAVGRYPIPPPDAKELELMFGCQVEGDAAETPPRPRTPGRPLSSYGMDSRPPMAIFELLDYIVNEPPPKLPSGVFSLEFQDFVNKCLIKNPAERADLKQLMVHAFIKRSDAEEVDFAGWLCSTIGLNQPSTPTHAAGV
# Target: MEK1 (Homo sapiens, UniProt Q02750, DEL33-52/S218E/S222D)
# Assay: MEK1 inhibition, ERK1/FI-Erktide fluorescence polarization assay with IMAP beads
row,IC50 [nM],SMILES
1,≥ 16,"Cn1cnc2c(c(Nc3ccc(I)cc3F)cc(=O)n2C)c1=O [Example 1, 5-(2-fluoro-4-iodophenylamino)-3,8-dimethylpyrido[2,3-d]pyrimidine-4,7(3H,8H)-dione]"
2,≥ 16,"Cn1c(=O)c(F)c(Nc2ccc(Br)cc2F)c2c(=O)n(C[C@@H](O)CO)cnc21 [Example 20, (R)-5-(4-Bromo-2-fluorophenylamino)-3-(2,3-dihydroxypropyl)-6-fluoro-8-methylpyrido[2,3-d]pyrimidine-4,7(3H,8H)-dione]"
